A selection: hits, their analogues and other compounds. The true share with any hit is near 1.5%.
PABP FP inh = blocks human PABP binding to poly(A) RNA; P11940; fluorescence polarization; calls only at 35 µM; hit rate 1% among 290,000; AID 2014;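 note: calls also rest on retests at 20 µM and on dose response follow-up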
Pemphigus Ab inh = blocks pemphigus antibody binding to human desmoglein-3 | P32926 | DSG3-coupled beads, scFv-anti-DSG3-GFP binding, flow cytometry; hits give low values | binding (percent of control), % at 10 µM | hit rate 0.48% among 310,000 | AID 588358;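 active = binding more than 3 SD below its plate's average and above zero; inconclusive = below that plate limit but binding exactly zero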;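 note: hits lower antibody fragment binding to DSG3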
eIF4H FP inh = inhibitors of RNA binding by human eIF4H | Q15056 | eIF4H fluorescence polarization binding assay | inhibition, % at 35 µM | hit rate 0.94% among 290,000 | AID 2012;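 note: calls also rest on retests at 20 µM and on dose response follow-up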
UUG fidelity = modulators of yeast start codon fidelity, primary screen, whole organism, S. cerevisiae, single point, plate reader; S. cerevisiae UUG-firefly luciferase reporter, luminescence/redox ratio; activity score, % at 18.7 µM; 0.13% of 350,000 active; AID 602363, 2012;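 active = replicate mean at a twofold rise or more, about +100% in these data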;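 also: firefly luciferase made from a UUG start codon reports start codon fidelity; reporter light over untreated wells divided by growth signal over untreated wells; some hits fall short of that in this replicate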
MLLE-PAM2 inh = inhibitors of microRNA-mediated deadenylation, human PABP1 MLLE binding | GST-MLLE / FITC-PAM2 fluorescence polarization | inhibition, % at 20 µM | P11940 | hit rate 0.36% among 360,000; in the data active = inhibition above about 35%, passing the limit was not always enough;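 note: plate controls were DMSO wells with GST-MLLE for no effect and wells lacking GST-MLLE protein for full effect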
The depositor's hits bear a star; i = inactive; u = inconclusive; x = no result given; + = active, no number. Unless noted, the rule behind the calls is not given here.

SMILES	PABP FP inh	Pemphigus Ab inh	eIF4H FP inh	UUG fidelity	MLLE-PAM2 inh
O=C1CC(C(=O)Nc2ccc(Cl)cc2)n2ncnc2N1 (configuration not stated)	i	-8.7*	-15	x	0
CCc1ccc(NC(=O)C2CC(=O)Nc3ncnn32)cc1 (configuration not stated)	i	101	1	x	-7
CN(C)Cc1c(O)c(Cl)cc2c3c(c(=O)oc12)CCCC3	+	102	64*	-14	10
COc1ccc(S(=O)(=O)N2CCN(Cc3ccc(OCCO)cc3)CC2)cc1	x	x	x	-4	x
CC1=C(C#N)C(=O)OC(C)(C)C1	+	108	122*	x	87
Cc1[nH]c(=O)c(C#N)c2c1COC(C)(C)C2	i	93	-6	-10	0
CO/N=C(\C(=O)N[C@@H]1C(=O)N2C(C(=O)O)=C(COC(N)=O)CS[C@H]12)c1ccco1	+	97	5.6*	-15	19
COc1ccc(CCC(=O)Nc2ccc(C)c(S(=O)(=O)N(C)C)c2)cc1OC	i	110	5	x	2
COc1ccc(CCNCC(=O)Nc2ccc(C)c(S(=O)(=O)N(C)C)c2)cc1	+	113	active	-7	-3
Cc1ccc(OCC(=O)Nc2ccc(S(=O)(=O)N(C)C3CCN(C)CC3)cc2)c(C)c1	+	100	-2	-17	-107
Cc1ccc(C(C)C)c(OCC(=O)Nc2ccc(N3CCN(S(C)(=O)=O)CC3)cc2)c1	i	53*	6	-29	-2
CN1CCC(N(C)S(=O)(=O)c2ccc(NC(=O)COc3ccc(Br)cc3Cl)cc2)CC1	x	103	x	x	-84
Cc1sc2ncn(CC(=O)Nc3c(F)cccc3F)c(=O)c2c1S(=O)(=O)N1CCC(C)CC1	i	55*	2	x	9
Cc1sc2ncn(CC(=O)NCCCN3CCC(C)CC3)c(=O)c2c1S(=O)(=O)N1CCC(C)CC1	i	x	-1	-22	-5
CCC(=O)N1[C@H](CNC(C)=O)[C@H](c2ccc(-c3cccc(F)c3)cc2)[C@@H]1CO	x	x	x	4	x
CCS(=O)(=O)NCC[C@H]1CC[C@H](NC(=O)Nc2cc(Cl)cc(Cl)c2)[C@H](CO)O1	x	x	x	-8	x
N#C/C(=C/c1ccc(N2CCOCC2)c([N+](=O)[O-])c1)C(N)=O	+	120	62*	-23	3
COc1cc2c(C#N)c(N3CCN(C)CC3)nc(N)c2c(N)n1	+	97	105*	-18	3
O=C(Nc1ccc(F)cc1)N[C@@H]1CC[C@H](CC(=O)N2CCOCC2)O[C@H]1CO	x	x	x	-4	x
c1cc(-c2ccoc2)n2ccnc2c1	x	x	x	-6	47*
CN1C(=O)c2cc(NC(=O)C3CC3)ccc2OC[C@@H]2O[C@H](CC(=O)NCC3CCCCC3)CC[C@H]21	x	x	x	14	x
COc1ccc(Nc2nnc(SCc3cc(=O)n4ccsc4n3)s2)cc1	+	99	75*	-9	7
Cc1ccc2nc(CSc3nnc(Nc4ccccc4F)s3)cc(=O)n2c1	+	85	70*	x	-8
Cc1ccc(Nc2nnc(SCc3cc(=O)n4cc(C)ccc4n3)s2)cc1	i	108	1	-8	-19
CNC[C@@H]1OCCCC[C@H](C)Oc2ccc(NS(=O)(=O)c3ccc(F)cc3)cc2C(=O)N([C@H](C)CO)C[C@@H]1C	x	x	x	18	x
Nc1c(C(=O)Nc2ccc(Br)cc2)sc2nc(-c3ccco3)ccc12	+	89	81*	-2	-9
Nc1c(C(=O)Nc2ccc(F)cc2)sc2nc(-c3ccco3)ccc12	+	101	99*	-21	-2
CC(=O)c1sc2nc(-c3ccco3)ccc2c1N	+	105	91*	-10	30
COc1nnc(-c2ccccc2)s1	i	111	-5	-16	39*
CCOC(=O)CC1=C(C(=O)OCC)C(c2ccc(OC)cc2OC)C(C#N)=C(N)O1 (configuration not stated)	i	106	60	-1	10
CCOC(=O)CC1=C(C(=O)OCC)C(c2ccc(C)o2)C(C#N)=C(N)O1 (configuration not stated)	+	121	92*	6	50*
O=C1NC(=S)N(C(=O)c2ccc(F)cc2)/C1=C/c1ccccc1	+	118	72*	-20	-130
COCC(=O)Nc1ccc2c(c1)OC[C@@H](C)N(Cc1ccncc1)C[C@@H](C)[C@@H](OC)CN(C)C2=O	x	x	x	-6	x
Cc1nc(Nc2ccccc2O)c2oc3ccccc3c2n1	i	80*	-9	-7	6
Cc1noc(C)c1S(=O)(=O)Nc1ccc2c(c1)C(=O)N([C@@H](C)CO)C[C@H](C)[C@@H](CN(C)C(=O)Nc1ccccc1)OCCCC[C@H](C)O2	x	x	x	-3	x
O=C(c1ccc([N+](=O)[O-])cc1)N(Cc1ccccc1)c1ccccn1	i	105	6	3	6
O=[N+]([O-])c1ccccc1SN(Cc1ccccc1)c1ccccn1	+	98	58*	x	8
O=C(Nc1cc(F)ccc1F)N1C[C@@H]2[C@H](c3ccccc31)[C@H](CO)N2CC1CCCC1	x	x	x	-16	x
CC(=O)Nc1cccc(OCc2ccc(S(=O)(=O)Cc3ccccc3)cc2)c1	i	58*	8	-19	11
C[C@H]1CN([C@@H](C)CO)C(=O)c2cc(NS(=O)(=O)c3ccc(F)cc3)ccc2O[C@@H]1CN(C)S(=O)(=O)c1cccs1	x	x	x	14	x
O=C1c2ccccc2-c2onc3c(N4CCN(CCO)CC4)cc(N4CCN(C(=O)c5ccco5)CC4)c1c23	+	108	83*	0	-76
O=C(c1ccco1)N1CCN(CCCCN2C(=O)c3ccccc3C2=O)CC1	i	102	12	1	3
O=C(O)CCCNc1cc(N2CCN(C(=O)c3ccco3)CC2)c2noc3c2c1C(=O)c1ccccc1-3	u	94	u	-14	-53
CN1CCN(c2cc(N3CCN(C(=O)c4ccco4)CC3)c3c4c(onc24)-c2ccccc2C3=O)CC1	+	97	93*	-5	-99
O=C1N=C(N2C=CC(=C3C=CNC=C3)C=C2)/C(=C/N=NC(=O)c2ccccc2O)S1	x	107	x	-17	48*
CC(=O)Oc1ccccc1/C=C/c1nc2ccccc2c(=O)o1	i	119	16	-19	-25
O=c1oc(/C=C/c2ccc([N+](=O)[O-])s2)nc2ccccc12	+	113	97*	-10	-21
Cc1cc(C)n(Cc2ccc(F)cc2)c(=O)c1C#N	i	98	0	-16	-2
Cc1ccccc1Cn1c(C)cc(C)c(C#N)c1=O	+	107	active	x	-3
COc1ccc(NC(=O)Nc2ccc3c(c2)CC(=O)N([C@H](C)CO)C[C@H](C)[C@@H](CN(C)C)O3)cc1	x	x	x	17	x
CC(C)(C)NC(=S)NNC(=O)[C@H]1C[C@@H]1c1ccccc1	i	x	2	x	-22
Cc1ccc(C2CC2C(=O)NNC(=S)Nc2ccc(Cl)cc2)cc1 (configuration not stated)	i	104	14	-27	44*

Some of these compounds in order of molar mass, low to high:
SMILES	PABP FP inh	Pemphigus Ab inh	eIF4H FP inh	UUG fidelity	MLLE-PAM2 inh
Cc1ccccc1Cn1c(C)cc(C)c(C#N)c1=O	+	107	active	x	-3
Cc1cc(C)n(Cc2ccc(F)cc2)c(=O)c1C#N	i	98	0	-16	-2
CC(C)(C)NC(=S)NNC(=O)[C@H]1C[C@@H]1c1ccccc1	i	x	2	x	-22
O=c1oc(/C=C/c2ccc([N+](=O)[O-])s2)nc2ccccc12	+	113	97*	-10	-21
O=C(c1ccco1)N1CCN(CCCCN2C(=O)c3ccccc3C2=O)CC1	i	102	12	1	3
O=C1N=C(N2C=CC(=C3C=CNC=C3)C=C2)/C(=C/N=NC(=O)c2ccccc2O)S1	x	107	x	-17	48*

Source: PubChem (several laboratories)
